Results from US10849847B2, “Compositions and methods for treating rosacea and acne” (Foamix Pharmaceuticals Ltd., priority 2016, dated 2020).

Key:
[1] = Doxycycline Hyclate Compatibility Test; type: physicochemical; conditions: tested after the storage for up to 3 weeks
[2] = Doxycycline Monohydrate Compatibility Test; type: physicochemical; conditions: tested after the storage for up to 3 weeks
Description: A similar compatibility study was conducted for Doxycycline Hyclate and Doxycycline Monohydrate.
Different compositions of hydrophilic and hydrophobic solvents containing Doxycycline Hyclate (Set I and Set II) and Doxycycline Monohydrate (Set III) were prepared by weighing the antibiotic in a glass vial and shaking overnight with each solvent investigated.
A similar compatibility test was performed on another form of Doxycycline—Doxycycline Monohydrate.

Compatibility with MCH (oily emollients, MCH:excipient 1:250, 25° C. and 40° C., maximum sixty days): compatible
Compatibility with Minocycline HCl (tested after the storage for up to 3 weeks): Yes
Compatibility with Doxycycline Hyclate [1]: Yes
Compatibility with Doxycycline Monohydrate [2]: Yes
Substance: Cetearyl octanoate
